Test results: ChEMBL document CHEMBL5625171, “Design, synthesis, and biological studies of novel sulfonamide derivatives as farnesoid X receptor agonists” (Eur J Med Chem, 2023)

Columns and labels:
Format in all cases: functional, organism-based
[1] = molecular target: T1, Bile acid receptor (Mus musculus) (UniProt Q60641); test: In vivo agonist activity at FXR of western diet/CCl4-induced NASH C57BL/6 mouse model assessed as decrease in CYP7A1 mRNA level in liver at 20 mg/kg/day, IG treated for 4 weeks measured after 8 hrs of fasting post-last dose by RT-PCR analysis
T1 sequence (whole entry): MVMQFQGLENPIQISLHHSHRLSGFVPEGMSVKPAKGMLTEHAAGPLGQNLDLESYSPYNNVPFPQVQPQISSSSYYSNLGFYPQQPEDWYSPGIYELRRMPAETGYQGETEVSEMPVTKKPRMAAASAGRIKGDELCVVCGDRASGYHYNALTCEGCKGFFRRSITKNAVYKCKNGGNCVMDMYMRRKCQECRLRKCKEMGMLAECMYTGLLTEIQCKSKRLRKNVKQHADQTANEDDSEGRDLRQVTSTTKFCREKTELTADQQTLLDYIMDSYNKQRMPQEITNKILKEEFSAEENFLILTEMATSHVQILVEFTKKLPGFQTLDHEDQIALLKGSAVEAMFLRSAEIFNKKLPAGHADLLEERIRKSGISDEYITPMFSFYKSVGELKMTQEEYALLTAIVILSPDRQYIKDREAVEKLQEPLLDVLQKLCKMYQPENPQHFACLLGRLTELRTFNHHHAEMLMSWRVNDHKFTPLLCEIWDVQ

[2] = molecular target: T1, Bile acid receptor (Mus musculus); test: In vivo agonist activity at FXR of western diet/CCl4-induced NASH C57BL/6 mouse model assessed as increase in SHP mRNA level in liver at 20 mg/kg/day, IG treated for 4 weeks measured after 8 hrs of fasting post-last dose by RT-PCR analysis
[3] = molecular target: T1, Bile acid receptor (Mus musculus); test: In vivo agonist activity at FXR of western diet/CCl4-induced NASH C57BL/6 mouse model assessed as increase in OST-beta mRNA level in liver at 20 mg/kg/day, IG treated for 4 weeks measured after 8 hrs of fasting post-last dose by RT-PCR analysis
[4] = molecular target: T1, Bile acid receptor (Mus musculus); test: In vivo agonist activity at FXR of western diet/CCl4-induced NASH C57BL/6 mouse model assessed as increase in FXR mRNA level in liver at 20 mg/kg/day, IG treated for 4 weeks measured after 8 hrs of fasting post-last dose by RT-PCR analysis
[5] = molecular target: T1, Bile acid receptor (Mus musculus); test: In vivo agonist activity at FXR of western diet/CCl4-induced NASH C57BL/6 mouse model assessed as increase in BSEP mRNA level in liver at 20 mg/kg/day, IG treated for 4 weeks measured after 8 hrs of fasting post-last dose by RT-PCR analysis

Measured: Activity

CC(C)CN(c1ccc(-c2ccc(OCC(=O)O)c(F)c2)cc1)S(=O)(=O)c1c(Cl)cccc1Cl
active: [1] | [2] | [3] | [4] | [5]

The source made the active and inactive calls.
